Binding of CDR-mutated scFvs to a peptide of the spike HR2 region

Antigen: PDVDLGDISGINAS, a 14-residue peptide of the SARS-CoV-2 spike HR2 region.

Ab-14 is the parent antibody, in scFv form: VH, then the linker GGGGSGGGGSGGGGS, then VL. The light chain is unchanged in all variants.
VH: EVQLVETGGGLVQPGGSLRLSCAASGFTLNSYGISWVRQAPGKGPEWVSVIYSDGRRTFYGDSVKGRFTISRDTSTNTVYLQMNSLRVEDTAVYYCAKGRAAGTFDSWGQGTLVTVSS
VL: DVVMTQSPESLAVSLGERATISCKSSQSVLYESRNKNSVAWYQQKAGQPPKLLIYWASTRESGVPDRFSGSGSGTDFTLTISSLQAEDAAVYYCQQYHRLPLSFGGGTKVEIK

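Phage display of a naive human antibody library on the peptide gave the parent. Library AAYL49 holds single substitutions and randomly drawn double and triple substitutions in the CDRs. AlphaSeq pools MATa yeast showing the antibodies with MATalpha yeast showing the peptide. After mating in shaken culture at 30 °C for 16 h, diploids were selected and their barcode pairs sequenced. A regression on co-assayed BCL2-family reference pairs converts the normalised counts of each replicate to an apparent Kd. Each pool was mated in three replicate cultures.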

Changes read parent residue, position, new residue, counted from the first residue of the VH shown.
The read-out is the apparent dissociation constant on a log10 scale (nM): the lower, the stronger.
An entry "nd" has no value in the source: the pair was not observed among the diploids in that replicate. This suggests poor binding but is not conclusive.
Nonspecific signal, from three strains lacking the peptide, appeared in 15% of pairings of library AAYL49, centred on 4.06 (5% of these signals below 2.83); values are not corrected for it. For each scFv, signals with the empty controls are counted beside the result, with their mean in brackets.

| changes | log10 Kd, replicates | control signals |
|---|---|---|
| S31E+V50G | nd / nd / nd | 0/9 |
| R57Y+T58V+Y60H | nd / nd / nd | 1/9 (3.33) |
| N30Q+R56P+T58N | nd / nd / nd | 0/9 |
| T28H+G33R | nd / nd / nd | 0/9 |
| Y32A+G55C+D106Y | 3.31 / nd / 5.72 | 4/9 (3.99) |
| Y52K+Y60E+R100H | nd / nd / nd | 1/9 (4.33) |
| S53Q+R57G+S63H | nd / nd / nd | 0/9 |
| D54Q+G103S | 4.35 / 4.17 / 2.93 | 1/9 (3.20) |
| L29C+Y60D+T104A | nd / nd / nd | 1/9 (3.99) |
| V50H+G55I+S63V | nd / nd / nd | 3/9 (4.64) |
| G55A+R56T+D106I | nd / nd / nd | 0/9 |
| Y32H+V64S+S107P | 3.68 / 3.31 / nd | 6/9 (3.89) |
| R57D+T58G+F105K | 5.30 / 3.31 / nd | 4/9 (4.22) |
| F59S+S63W+T104Q | nd / nd / nd | 0/9 |
| Y52M+F59A+K65H | nd / nd / nd | 0/9 |
| I34R+F59T+A101K | 5.86 / nd / nd | 2/9 (3.83) |
| S35E+T58K+V64N | nd / 3.01 / nd | 3/9 (3.13) |
| R57T+D62N+G99L | nd / nd / nd | 3/9 (3.35) |
| Y52N+T104R+F105H | nd / nd / nd | 0/9 |
| T28Y+A102Q | nd / 2.36 / nd | 0/9 |
| L29Q+R57F+T104M | nd / nd / nd | 0/9 |
| S53G+G61S+S107I | 1.15 / 1.29 / 1.48 | 0/9 |
| G26K+A102C+S107P | 2.74 / 2.46 / 2.01 | 1/9 (3.73) |
| G33L+D62F+R100M | nd / nd / nd | 0/9 |
| G61C+A102Q+S107M | 0.83 / 1.05 / 1.23 | 1/9 (3.84) |
| I51F+D54W+G55H | nd / nd / nd | 0/9 |
| S53E+S63H+D106G | nd / nd / nd | 0/9 |
| R57D+D62C+F105L | nd / 3.36 / nd | 0/9 |
| Y60D+D62S+K65L | nd / nd / nd | 0/9 |
| T28I+G103S | nd / 4.63 / nd | 3/9 (4.23) |
| Y52Q+T58E+Y60M | nd / nd / nd | 0/9 |
| R57W+T58I+F105M | 3.26 / nd / nd | 0/9 |
| F59R+G99L+G103C | nd / nd / nd | 0/9 |
| I51F+G55D+K65V | nd / nd / nd | 0/9 |
| F59K+G99N+R100E | 4.08 / nd / nd | 1/9 (3.47) |
| R56Q+Y60S | 3.61 / nd / 3.52 | 4/9 (4.37) |
| N30Y+F59K+R100E | 2.73 / nd / 4.21 | 0/9 |
| N30K+S63M+D106Q | 1.47 / 1.29 / 1.63 | 3/9 (4.00) |
| R57K+G61R+D106S | 2.18 / 2.47 / 2.05 | 1/9 (4.53) |
| N30R+Y32R+R56Q | 1.08 / 1.14 / 1.18 | 1/9 (3.43) |

From the list, the first 6 with no signal in any replicate:

changes,"log10 Kd, replicates",control signals
S31E+V50G,nd / nd / nd,0/9
R57Y+T58V+Y60H,nd / nd / nd,1/9 (3.33)
N30Q+R56P+T58N,nd / nd / nd,0/9
T28H+G33R,nd / nd / nd,0/9
Y52K+Y60E+R100H,nd / nd / nd,1/9 (4.33)
S53Q+R57G+S63H,nd / nd / nd,0/9

Values reported by Engelhart et al. 2022, doi:10.1038/s41597-022-01779-4 (FLAb copy).